Sfp inh – inhibitors of Bacillus subtilis Sfp phosphopantetheinyl transferase | 310,000 compounds, 3.5% hits | Potency, µM, without a hit: max response, negative = inhibition, most hits filed as inhibitors | Q9F4F7 | Biochemical Sfp PPTase activity, qHTS; active = well fitted inhibition curve with a large enough effect; inconclusive = small, poorly fitted or top-dose-only effect, or another doubt; inactive = no such curve, though single readings can be large or run the other way;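 also: the enzyme is Sfp with the accession as filed and its product quenches rhodamine fluorescence; potency is read from the fitted curve at half-maximal effect; 0% = enzyme reaction without inhibitor and -100% = no enzyme wells; top concentration of the series not given in the record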
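Step 1, compound plus 15 nM Sfp-PPTase, 15 min, room temperature. Step 2, add rhodamine-CoA (5 uM) and BHQ-2-YbbR (12.5 uM). Step 3, read 525/598 nm fluorescence at 0 and 30 min.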
LMNA splice mod – modulators of lamin A splicing. 200,000 compounds, 0.01% hits. HeLa LMNA splicing GFP/RFP minigene ratio, 48 h. AID 1487. Potency, µM (highest dose often 46.1 µM), for the others: at the top dose ratio change, negative = inhibition, most hits filed as inhibitors; active = well fitted inhibition curve with a large enough effect in the signal ratio, with a control signal flat, not every such curve was filed as active; inconclusive = small, poorly fitted or top-dose-only effect, or effect the other way, or a change in a side signal; the % refers to the signal ratio; note: potency is the fitted concentration of half-maximal effect; % is set by controls: 0 for no effect and ±100 for the full control effect
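S3 HeLa stable clones carrying a lamin A-EGFP splicing minigene plus DsRed2 were seeded at 600 cells/well in Opti-MEM with 2% FBS, pin-dosed and incubated 48 h at 37°C. Acumen cytometry (488 nm) gave the GFP/RFP total-intensity ratio.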
miR-21 reporter – miR-21 reporter, rising signal | HeLa miR-21 FLuc reporter, luciferase, 48 h | Potency, µM (top dose mostly 38.3 µM), inactives show at the highest dose reporter change, positive = more light | 340,000 tested, under 10 active | AID 2288; active = well fitted rising curve with a large enough effect; inconclusive = small, poorly fitted or top-dose-only effect; inactive = no such curve, though single readings can be large or run the other way;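 note: % of control where 0% means no effect; miR-21 action dims this reporter so a rising signal means less miR-21 action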
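Using DMEM plus 10% FBS, HeLa miR-21-FLuc cells are incubated with test compounds (final up to about 40uM) for 48 hours; firefly luciferase signal is then imaged following reagent-mediated lysis.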
JMJD2E inh – JMJD2E (human) inhibition; Potency, µM (doses to about 57.1 µM), for inactives: at the highest dose activity change, negative = inhibition, hits mostly inhibitors; AID 2147; 230,000 compounds, 1.6% hits; JMJD2E catalytic domain, FDH-coupled NADH fluorescence (FDH is formaldehyde dehydrogenase);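 note: potency is the fitted concentration of half-maximal effect; 0% = wells with enzyme and -100% = buffer wells without enzyme; nearly all actives have a fitted effect of over 50% in size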
ALDH1A1 block – blocks purified human ALDH1A1 activity | P00352 | Purified ALDH1A1, NADH fluorescence, propionaldehyde substrate | Potency, µM (titrated, usually from 75.3 µM), for inactives: at the highest dose activity, negative = inhibition, hits mostly inhibitors | 220,000 compounds, 7.3% hits | AID 1030; active = well fitted inhibition curve with a large enough effect, not every such curve was filed as active; inconclusive = small, poorly fitted or top-dose-only effect, or another doubt; inactive = no such curve, though single readings can be large or run the other way;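 note: potency is the fitted concentration of half-maximal effect; plate controls were no enzyme wells and a reference inhibitor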
G9a inh – blocks human histone lysine methyltransferase G9a; G9a H3K9 monomethylation, AlphaScreen, 2 h; Potency, µM (series often up to 102 µM), for inactives: top-dose activity, negative = inhibition, usual class: inhibitors; 350,000 compounds, 8.8% hits; AID 504332; note: potency is the fitted concentration of half-maximal effect; % is set by controls: 0 for no effect and ±100 for the full control effect; nearly all actives have a fitted effect of over 75% in size
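Compounds were preincubated with 20 nM G9a for 15 min, after which biotinylated H3K9 peptide (500 nM) and SAM (20 uM) started a 2 h room-temperature reaction. Monomethylated product was quantified by antibody-based AlphaScreen chemiluminescence.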
Active calls of the source: *; ? = inconclusive; / = no result; [ ] = dose if it differs, or a comment. Rows were chosen to be rich in hits. Some 13% of all compounds tested hit in one or more screens of this group. Unless noted, calls come from the whole dose curve; as a rule, active = well fitted curve in the direction sought with a large enough effect; inconclusive = small, poorly fitted or top-dose-only effect, or another doubt; inactive = no such curve, though single readings can be large; an effect the other way counts as inactive or inconclusive.

SMILES	Sfp inh	LMNA splice mod	miR-21 reporter	JMJD2E inh	ALDH1A1 block	G9a inh
Cc1ccc(NC(=O)Cn2c(O)c(N=NC(=O)c3ccncc3)c3ccccc32)cc1	3%	-8%[46 µM]	-5%	-7%	4.5µM*	-17%
COc1ccccc1NC(=O)Cn1c(O)c(N=NC(=O)c2ccccc2O)c2ccccc21	-56%	/	1%	-14%	1.6µM*	45µM*
CCCCn1c(O)c(N=NC(=O)c2ccncc2)c2cc(Br)ccc21	10%	0%	7%	13%	7.9µM*	-14%[59 µM]
CCn1c(O)c(N=NC(=O)c2cccnc2)c2cc(Br)ccc21	-3%	/	0%	15%	?	/
CCC(=O)N1CCc2cc(S(=O)(=O)NCCC(=O)Nc3cccc(SC)c3)ccc21	/	/	9%	/	/	16%[59 µM]
CCN(CC)C(=O)c1sc(NC(=O)c2cccs2)c(C#N)c1C	7%	?	-4%	-9%	2%	49%
CCNc1sc(C(=O)c2cccs2)c(N)c1C#N	45µM*	-13%	-14%	-20%	8.9µM*	-41%[12.7 µM]
Cc1c(C(=O)N2CCCC2)sc(NC(=O)c2cccs2)c1C#N	29%	5%	-5%	8%	13%	11%[12.7 µM]
C=CCNc1sc(C(=O)c2cccs2)c(N)c1C#N	6%	-7%	-8%	4%	?	13µM*
COc1ccc(C)cc1NC(=O)Nc1ccncc1	-2%	/	5%	/	/	16%
COC(=O)C1CCN(C(=O)COc2cc3sc(C)nc3c3sccc23)CC1	10%	1%	3%	-8%	11µM*	-21%[12.7 µM]
CCCc1nnc(NC(=O)CCC(=O)NC2CCCCCC2)s1	14%	/	-1%	/	/	/
CC(OC(=O)CCCN=C1NS(=O)(=O)c2ccccc21)C(=O)NC1CCCCC1C (stereo not drawn)	12%	/	-1%	/	/	?
c1ccc(OCCn2c(-c3ccco3)nc3ccccc32)cc1	50µM*	5%	-31%	?	?	40µM*
Cc1cccc(OCCn2c(-c3ccco3)nc3ccccc32)c1	?	8%	-33%	?	?	?
O=C(Cn1c(-c2ccco2)nc2ccccc21)N1CCCCC1	?	-8%[0.0737 µM]	0%	0%	?	34%[0.501 µM]
CCn1c(-c2ccco2)nc2ccccc21	40µM*	15%	-29%	?	?	6.3µM*
CC(C)N(C(=O)N1CCN(c2ccnc3cc(Cl)ccc23)CC1)C(C)C	-2%	/	?	/	/	16%
O=C(Cn1cc(S(=O)(=O)Cc2ccc(F)cc2)c2ccccc21)NCc1ccccc1	/	4%[46 µM]	-2%	/	/	-4%[59 µM]
Cc1ccc(NC(=O)CSc2nc3[nH]ncc3c(=O)[nH]2)c(C)c1	-36%	7%[46 µM]	5%	2%	-4%	-22%
CCOc1cccc(-c2c(C(=O)N/N=C(\C)c3ccccn3)nnn2-c2nonc2N)c1	32µM*	/	9%	/	/	/
C/C(=N\NC(=O)c1nnn(-c2nonc2N)c1-c1ccccc1)c1cccnc1	10%	/	-3%	/	/	16%
Nc1nonc1-n1nnc(C(=O)c2ccccc2)c1-c1ccccc1	3%	10%	0%	0%	2.8µM*	18%[12.7 µM]
O=C(NC1CC(=O)N(c2ccccc2)C1)c1ccc(S(=O)(=O)N2CCCC2)cc1 (stereo not drawn)	/	5%[46 µM]	1%	/	/	5%[59 µM]
COc1ccccc1N1CCN(C2CCN(S(=O)(=O)c3ccc(NC(C)=O)cc3)CC2)CC1	13%	/	0%	3%	7%	-4%

Some of these compounds in order of molar mass, highest first.
SMILES	Sfp inh	LMNA splice mod	miR-21 reporter	JMJD2E inh	ALDH1A1 block	G9a inh
COc1ccccc1NC(=O)Cn1c(O)c(N=NC(=O)c2ccccc2O)c2ccccc21	-56%	/	1%	-14%	1.6µM*	45µM*
O=C(NC1CC(=O)N(c2ccccc2)C1)c1ccc(S(=O)(=O)N2CCCC2)cc1 (stereo not drawn)	/	5%[46 µM]	1%	/	/	5%[59 µM]
CCCCn1c(O)c(N=NC(=O)c2ccncc2)c2cc(Br)ccc21	10%	0%	7%	13%	7.9µM*	-14%[59 µM]

The main list resumes, starting 2 compounds before the break.
SMILES	Sfp inh	LMNA splice mod	miR-21 reporter	JMJD2E inh	ALDH1A1 block	G9a inh
O=C(NC1CC(=O)N(c2ccccc2)C1)c1ccc(S(=O)(=O)N2CCCC2)cc1 (stereo not drawn)	/	5%[46 µM]	1%	/	/	5%[59 µM]
COc1ccccc1N1CCN(C2CCN(S(=O)(=O)c3ccc(NC(C)=O)cc3)CC2)CC1	13%	/	0%	3%	7%	-4%
Cc1cc(S(=O)(=O)N2CCCC(N3CCOCC3)C2)c(C)cc1Cl (stereo not drawn)	4%	/	6%	/	/	45µM*
COc1ccc(S(=O)(=O)N2CCC(N3CCN(c4ccccc4OC)CC3)CC2)cc1	?	/	-6%	?	/	3.2µM*
COc1ccc(N2CCN(C3CCCN(Cc4ccc(F)cc4Cl)C3)CC2)cc1 (stereo not drawn)	4%	/	2%	/	/	71µM*
COc1ccc(N2CCN(C3CCCN(S(=O)(=O)c4ccc(C)cc4C)C3)CC2)cc1 (stereo not drawn)	3%	/	0%	/	/	35µM*
O=S(=O)(c1cc(Cl)ccc1Cl)N1CCN2CCCC2C1 (stereo not drawn)	14%	/	9%	/	/	-9%
COc1ccc(N2CCN(C3CCCN(S(=O)(=O)c4ccccc4)C3)CC2)cc1 (stereo not drawn)	3%	/	-2%	/	/	/
COc1ccccc1N1CCN(C2CCCN(S(=O)(=O)c3ccc(C)cc3)C2)CC1 (stereo not drawn)	3%	/	9%	/	/	56µM*
COc1ccccc1N1CCN(C2CCCN(S(=O)(=O)c3cccc(Cl)c3)C2)CC1 (stereo not drawn)	-3%	/	5%	/	/	?
CCCc1cc(C(=O)N2CCCC(C(=O)c3ccc(Cl)cc3)C2)n(C)n1 (stereo not drawn)	7%	/	11%	/	/	5%
CC(C(=O)Nc1cccnc1)N1C(=O)C2C3C=CC(C3)C2C1=O (stereo not drawn)	9%	7%	0%	-1%	20µM*	/
CC(C(=O)Nc1cccnc1)N1C(=O)c2ccccc2C1=O (stereo not drawn)	13%	0%	-3%	4%	14%	-4%[59 µM]
O=C(/C=C1\NC2(CCCC2)Cc2ccccc21)N1CCOCC1	?	-12%	-1%	-19%	?	32µM*
O=C1OC(C(=O)Nc2nccs2)Cc2ccccc21 (stereo not drawn)	-8%	-1%	-6%	-1%	5%	-47%[59 µM]
CC(=O)Cc1nsc(NC(=O)C2Cc3ccccc3C(=O)O2)n1 (stereo not drawn)	12%	5%	-5%	0%	?	56µM*
CSc1ccccc1-c1nc(-c2ccncc2)no1	-4%	/	-70%	/	/	8%
COc1cc(SC)ccc1C(=O)N1CCc2ccccc21	-7%	/	3%	/	/	/
CCCCCCCCCc1nc2sc3c(c2c(=O)n1NC(=O)c1ccc([N+](=O)[O-])cc1)CC(C)(C)OC3	15%	?	1%	-7%	7.1µM*	?
CCc1nc2sc3c(c2c(=O)n1N)CC(C)(C)OC3	29%	?	-12%	11%	11%	2%[59 µM]
CCCc1nc2sc3c(c2c(=O)n1NC(=O)c1ccco1)CC(C)(C)OC3	4%	5%	-13%	-2%	?	20%
CCCCCCCCCc1nc2sc3c(c2c(=O)n1NC(=O)c1ccccc1[N+](=O)[O-])CC(C)(C)OC3	-1%	?	-7%	1%	1.4µM*	71µM*
COc1ccc(CCNC(=O)c2c(O)nc3ccccn3c2=O)cc1OC	/	/	4%	/	/	?
COc1ccc(-c2nc(S(=O)(=O)c3ccc(Cl)cc3)c(NCc3ccccc3)o2)cc1	/	/	?	/	/	3%[59 µM]

Bioassay records: PubChem BioAssay, National Center for Advancing Translational Sciences (NCATS)
